# Reference: patent publication US8436005B2, “Macrocyclic pyrimidine derivatives” (Abbott Laboratories, priority 2008, dated 2013)
# The chains behind the UniProt entries cited, without tags or fusion partners.
# UniProt Q9H3N8, whole entry, species assumed: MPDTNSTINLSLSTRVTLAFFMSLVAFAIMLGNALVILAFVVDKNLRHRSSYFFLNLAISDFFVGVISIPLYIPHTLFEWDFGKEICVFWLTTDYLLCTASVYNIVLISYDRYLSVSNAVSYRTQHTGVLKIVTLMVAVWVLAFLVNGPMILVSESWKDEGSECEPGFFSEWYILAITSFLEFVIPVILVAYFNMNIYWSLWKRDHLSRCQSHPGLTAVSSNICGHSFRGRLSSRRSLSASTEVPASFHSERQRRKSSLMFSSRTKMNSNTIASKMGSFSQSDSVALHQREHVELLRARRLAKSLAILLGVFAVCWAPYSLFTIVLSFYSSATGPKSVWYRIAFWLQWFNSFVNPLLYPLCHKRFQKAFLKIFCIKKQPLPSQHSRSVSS
# Experiments:
# histamine H4 receptor [1] = target: T1, histamine H4 receptor (Homo sapiens, UniProt Q9H3N8); experiment: In vitro histamine H4 potency in FLIPR (Ca2+ flux, Fluo-4, HEK-293 cells coexpressing Gαqi5); format: cell-based; set-up: expressed in transfected cells; settings: HEK-293 cells stably expressing histamine H4 receptor and Gαqi5
# histamine H4 receptor [2] = target: T1, histamine H4 receptor; experiment: biochemical
# histamine H4 receptor [3] = target: T1, histamine H4 receptor; settings: read-out: Potency (Ki by Cheng-Prusoff, displacement of [3H]-histamine); membranes of transfected HEK-293 cells, 25° C., 1 hour
SMILES,"Potency (Kb for antagonists and inverse agonists, EC50 for partial agonists) (histamine H4 receptor [1]) [nM]",Ki (histamine H4 receptor [2]) [nM],Ki (histamine H4 receptor [3]) [nM]
"CC1(C)CCCCc2c(N3CC[C@@H](N)C3)nc(N)nc21 [Example 1, (R)-4-(3-aminopyrrolidin-1-yl)-9,9-dimethyl-6,7,8,9-tetrahydro-5H-cyclohepta[d]pyrimidin-2-amine]",35,–,–
"COC1(OC)CCCc2c(N3CCNCC3)nc(N)nc21 [Example 12, 8,8-dimethoxy-4-(piperazin-1-yl)-5,6,7,8-tetrahydroquinazolin-2-amine]",133,–,–
"Nc1nc2c(c(N3CC4CCCNC4C3)n1)CCCCC2c1ccccc1 (stereo not shown) [Example 20, 9-phenyl-4-tetrahydro-1H-pyrrolo[3,4-b]pyridine-6(2H,7H,7aH)-6,7,8,9-tetrahydro-5H-cyclohepta[d]pyrimidin-2-amine]",26,4.4,–
"Nc1nc2c(c(N3CCNCC3)n1)CCCCC2c1ccccc1 (stereo not shown) [Example 19, 9-phenyl-4-(piperazin-1-yl)-6,7,8,9-tetrahydro-5H-cyclohepta[d]pyrimidin-2-amine]",58,–,40
"CCC1(CC)CCCCc2c(N3CC[C@@H](N)C3)nc(N)nc21 [Example 3, (R)-4-(3-aminopyrrolidin-1-yl)-9,9-diethyl-6,7,8,9-tetrahydro-5H-cyclohepta[d]pyrimidin-2-amine]",78,–,–
"Nc1nc2c(c(N3CC(N)C3)n1)CCCC(c1ccccc1)C2 (stereo not shown) [Example 8, 4-(3-aminoazetidin-1-yl)-8-phenyl-6,7,8,9-tetrahydro-5H-cyclohepta[d]pyrimidin-2-amine]",2700,–,–
"Nc1nc2c(c(N3C[C@H]4CCCN[C@H]4C3)n1)CCCCC2c1ccccc1 (stereo partly drawn) [Example 21, 9-phenyl-4-((4aR,7aR)-tetrahydro-1H-pyrrolo[3,4-b]pyridin-6(2H,7H,7aH)-yl)-6,7,8,9-tetrahydro-5H-cyclohepta[d]pyrimidin-2-amine]",13,2.8,–

# Read-outs that look alike come from different tables or passages of the source.
